Protein sequences, listed by entry. Tags and fused reporters are not part of them. Lines headed by an entry give the natural chain unless they say otherwise; changes in a name come on top.
UniProt P41145: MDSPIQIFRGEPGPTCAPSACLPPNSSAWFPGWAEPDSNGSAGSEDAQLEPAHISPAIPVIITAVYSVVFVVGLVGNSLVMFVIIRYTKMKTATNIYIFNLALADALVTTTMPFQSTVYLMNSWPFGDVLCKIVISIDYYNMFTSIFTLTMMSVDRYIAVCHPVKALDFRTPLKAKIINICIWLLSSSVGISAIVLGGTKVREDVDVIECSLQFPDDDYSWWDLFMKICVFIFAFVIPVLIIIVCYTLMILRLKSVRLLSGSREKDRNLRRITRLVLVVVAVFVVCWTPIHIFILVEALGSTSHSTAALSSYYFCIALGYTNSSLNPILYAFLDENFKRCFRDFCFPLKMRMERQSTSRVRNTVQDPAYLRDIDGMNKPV

According to US20060287345A1, “Substituted 4-phenyl-4-[1h-imidazol-2-yl]-piperidine derivatives as selective non-peptide delta opiod agonists with antidepressant and anxiolytic activity” (priority 2003, published 2006):

Legend:
[1] = target: T1, cloned human δ opioid receptor (Homo sapiens, UniProt P41143); test: Radioligand binding, competitive inhibition of [3H]DPDPE
T1 construct: expressed in transfected cells; host or cells: C6 glioma cells (permanently transfected)

δ opioid receptor [2] = target: T2, δ opioid receptor (Homo sapiens, UniProt P41143); test: cell-based
δ opioid receptor [3] = target: T2, δ opioid receptor; test: [35S]GTPγS binding, delta agonism; assay type: biochemical; parameters: expressed in transfected cells; host or cells: C6 glioma cells (permanently transfected)
δ opioid receptor [4] = target: T2, δ opioid receptor; test: Signal transport binding, delta antagonism; assay type: biochemical; parameters: expressed in transfected cells; host or cells: C6 glioma cells (permanently transfected)
[5] = target: cloned human κ opioid receptor (Homo sapiens, UniProt P41145); test: biochemical
[6] = Agonist receptor binding (pIC50) delta, Table 8, [3H]DPDPE 2 nM, C6 glioma cell membranes
[7] = pIC50 values for the delta opioid receptor agonist test, Table 7, delta opioid receptor

| SMILES | IC50 [1, 6] [nM] | IC50 [1, 7] [nM] | further results |
| --- | --- | --- | --- |
| CCOC(=O)N1CCC(c2ccccc2)(c2nccn2Cc2ccc(C(=O)OC)cc2)CC1 [Compound 3] | 1.58 | – | IC50 (δ opioid receptor [2]): 15.8 nM; IC50 (δ opioid receptor [3]): 50.1 nM; IC50 (δ opioid receptor [4]): > 10000 nM |
| O=C(c1ccccc1)N1CCC(c2ccccc2)(c2nccn2Cc2ccccc2)CC1 [Compound 2] | 5.01 | – | IC50 (δ opioid receptor [2]): 15.8 nM; IC50 (δ opioid receptor [3]): 158 nM; IC50 (δ opioid receptor [4]): > 10000 nM |
| CC(C)(C)OC(=O)N1CCC(c2ccccc2)(c2nccn2Cc2ccccc2)CC1 [Compound 26] | – | 20 | – |
| CCOC(=O)N1CCC(c2ccccc2)(c2nccn2Cc2cccc(OC)c2)CC1 [Compound 18] | – | 63.1 | – |
| CCOC(=O)N1CCC(c2ccccc2)(c2nccn2Cc2cccc(F)c2)CC1 [Compound 17] | – | 12.6 | – |
| O=C(Cc1ccccc1)N1CCC(c2ccccc2)(c2nccn2Cc2ccccc2)CC1 [Compound 45] | – | 50.1 | – |
| CCOC(=O)N1CCC(c2ccccc2)(c2nccn2Cc2ccc(OC)cc2)CC1 [Compound 15] | – | 25.1 | – |
| O=C(Nc1ccccc1F)N1CCC(c2ccccc2)(c2nccn2Cc2ccccc2)CC1 [Compound 64] | – | 63.1 | – |
| CCCOC(=O)N1CCC(c2ccccc2)(c2nccn2Cc2ccccc2)CC1 [Compound 24] | 6.31 | – | IC50 (δ opioid receptor [2]): 6.31 nM; IC50 (δ opioid receptor [3]): 126 nM; IC50 (δ opioid receptor [4]): > 10000 nM |
| CC(C)(C)C(=O)N1CCC(c2ccccc2)(c2nccn2Cc2ccccc2)CC1 [Compound 37] | – | 79.4 | – |
| COCC(=O)N1CCC(c2ccccc2)(c2nccn2C(C)c2ccccc2)CC1 (stereo not shown) [Compound 31] | 7.94 | – | IC50 (δ opioid receptor [2]): 7.94 nM |
| CCOC(=O)N1CCC(c2ccccc2)(c2nccn2Cc2ccccc2)CC1 [Compound 1, ethyl 4-phenyl-4-[1-(phenylmethyl)-1H-imidazol-2-yl]-1-piperidinecarboxylate] | 7.94 | – | IC50 (δ opioid receptor [2]): 25.1 nM; IC50 [5]: 501 nM; IC50 (δ opioid receptor [3]): 79.4 nM; IC50 (δ opioid receptor [4]): > 10000 nM |
| O=C(Nc1cccc(F)c1)N1CCC(c2ccccc2)(c2nccn2Cc2ccccc2)CC1 [Compound 72] | – | 63.1 | – |
| CC(=O)N1CCC(c2ccccc2)(c2nccn2Cc2ccccc2)CC1 [Compound 33] | – | 79.4 | – |
| COC(=O)N1CCC(c2ccccc2)(c2nccn2Cc2ccccc2)CC1 [Compound 13] | – | 39.8 | – |
| O=C(OCc1ccccc1)N1CCC(c2ccccc2)(c2nccn2Cc2ccccc2)CC1 [Compound 32] | – | 25.1 | – |

| SMILES | IC50 [1, 6] [nM] | IC50 [1, 7] [nM] | further results |
| --- | --- | --- | --- |
| COC(=O)c1ccc(Cn2ccnc2C2(c3ccccc3)CCN(C(=O)c3ccccc3)CC2)cc1 [Compound 38] | 2 | – | IC50 (δ opioid receptor [2]): 5.01 nM |
| CCC(=O)N1CCC(c2ccccc2)(c2nccn2Cc2ccccc2)CC1 [Compound 34] | – | 63.1 | – |
| CC(c1ccccc1)n1ccnc1C1(c2ccccc2)CCN(C(=O)Nc2ccccc2)CC1 (stereo not shown) [Compound 55] | – | 50.1 | – |
| CCOC(=O)N1CCC(c2ccccc2)(c2nccn2Cc2ccc(O)cc2)CC1 [Compound 12, ethyl 4-phenyl-4-[1-(4-hydroxyphenylmethyl)-1H-imidazol-2-yl]-1-piperidinecarboxylate] | 10 | – | IC50 (δ opioid receptor [2]): 12.6 nM; IC50 (δ opioid receptor [3]): 100 nM; IC50 (δ opioid receptor [4]): > 10000 nM |
| CC(C)OC(=O)N1CCC(c2ccccc2)(c2nccn2Cc2ccccc2)CC1 [Compound 25] | 3.98 | – | IC50 (δ opioid receptor [2]): 10 nM; IC50 (δ opioid receptor [3]): 126 nM; IC50 (δ opioid receptor [4]): > 10000 nM |
| COc1ccccc1NC(=O)N1CCC(c2ccccc2)(c2nccn2Cc2ccccc2)CC1 [Compound 67] | – | 15.8 | – |
| CCNC(=O)N1CCC(c2ccccc2)(c2nccn2Cc2ccccc2)CC1 [Compound 47] | – | 79.4 | – |
| O=S(=O)(Nc1ccccc1)N1CCC(c2ccccc2)(c2nccn2Cc2ccccc2)CC1 [Compound 98] | – | – | IC50 [5]: 1580 nM |
| CC(c1ccccc1)n1ccnc1C1(c2ccccc2)CCN(C(=O)c2ccccc2)CC1 (stereo not shown) [Compound 41] | 5.01 | – | – |
| CN(C(=O)N1CCC(c2ccccc2)(c2nccn2Cc2ccccc2)CC1)c1ccccc1 [Compound 9] | – | 20 | – |
| CCCCOC(=O)N1CCC(c2ccccc2)(c2nccn2Cc2ccccc2)CC1 [Compound 27] | – | 20 | – |
| COCC(=O)N1CCC(c2ccccc2)(c2nccn2Cc2ccccc2)CC1 [Compound 29] | – | 15.8 | – |
| COc1cccc(NC(=O)N2CCC(c3ccccc3)(c3nccn3Cc3ccccc3)CC2)c1 [Compound 69] | – | 25.1 | – |
| CCOC(=O)N1CCC(c2ccccc2)(c2nccn2C(C)c2ccccc2)CC1 (stereo not shown) [Compound 20] | 2.51 | – | IC50 (δ opioid receptor [2]): 31.6 nM; IC50 (δ opioid receptor [3]): 100 nM; IC50 (δ opioid receptor [4]): > 10000 nM |
| O=C(Nc1ccccc1)N1CCC(c2ccccc2)(c2nccn2Cc2ccccc2F)CC1 [Compound 56] | – | 79.4 | – |
